The chains behind the UniProt entries cited, without tags or fusion partners. Residues count along the entry.
UniProt P08588, 58-377 limits assumed: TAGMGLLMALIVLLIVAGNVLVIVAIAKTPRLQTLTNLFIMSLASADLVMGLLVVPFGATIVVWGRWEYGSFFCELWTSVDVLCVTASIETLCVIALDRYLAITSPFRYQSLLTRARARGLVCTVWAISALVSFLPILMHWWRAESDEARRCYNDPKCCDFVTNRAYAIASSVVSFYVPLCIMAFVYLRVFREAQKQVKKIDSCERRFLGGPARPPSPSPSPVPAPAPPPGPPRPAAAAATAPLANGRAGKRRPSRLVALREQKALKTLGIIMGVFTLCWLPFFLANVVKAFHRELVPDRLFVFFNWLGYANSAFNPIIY

According to patent US6645755B1, “VECTOR MODIFIED BY SEQUENCE CODING FOR A SEQUENCE OF AMINO ACIDS CONTAINED IN A MAMMALIAN PROTEIN HAVING THE BIOLOGICAL ACTIVITY OF A MEMBRANE RECEPTOR, EXPRESSION OF THIS SEQUENCE IN TRANSFORMED UNICELLULAR CULTURES BY MEANS OF THIS VECTOR, PROCEDURE FOR STUDYING LIGANDS RECOGNIZING THESE RECEPTORS” (Centre National de la Recherche Scientifique, priority 1988, dated 2003):

Target: Huβ1AR (Homo sapiens, UniProt P08588)
Test: Competition binding against ICYP on E. coli expressing Huβ1AR (pSMLβ1)

Compound `CNC[C@H](O)c1ccc(O)c(O)c1` [epinephrine] has a Ki of 696 nM.
